Test results: article PMC2633459 (Molecular Vision, 2009)

Target: T1, wild type human βA3-crystallin (human, UniProt P05813 1-215)
T1 construct: human βA3-crystallin, wild type, recombinant; no tag is mentioned; also called WT βA3; βA3 WT; source: E. coli, purified (successive ion-exchange chromatography)
T1 sequence (looked up): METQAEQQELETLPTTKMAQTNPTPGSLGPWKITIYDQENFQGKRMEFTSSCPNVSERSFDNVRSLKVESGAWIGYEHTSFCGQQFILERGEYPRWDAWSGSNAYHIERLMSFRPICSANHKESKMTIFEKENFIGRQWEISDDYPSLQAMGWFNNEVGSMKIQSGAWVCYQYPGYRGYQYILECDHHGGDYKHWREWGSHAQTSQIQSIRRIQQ
Test: SEC-MALS; 1:1 molar ratio of βA3 (WT or DM) with βB1 or βB2, final 0.4–0.5 mg/ml, incubated at 37 °C for 90 min (time course 30–300 min); pH 6.8 phosphate, 100 mM KCl, 1 mM EDTA, 1 mM DTT; peak fractions checked by SDS-PAGE
Settings: both partners purified

binding result: binds
B1: wild type human βB2-crystallin (natural protein, UniProt P43320 1-205, looked up)
chain: MASDHQTQAGKPQSLNPKIIIFEQENFQGHSHELNGPCPNLKETGVEKAGSVLVQAGPWVGYEQANCKGEQFVFEKGEYPRWDSWTSSRRTDSLSSLRPIKVDSQEHKIILYENPNFTGKKMEIIDDDVPSFHAHGYQEKVSSVRVQSGTWVGYQYPGYRGLQYLLEKGDYKDSSDFGAPHPQVQSVRRIRDMQWHQRGAFHPSN
notes: human βB2-crystallin, wild type, recombinant; source: E. coli, purified (successive ion-exchange chromatography)
